The test system of experiment [1] is newly diabetic NOD mice. As to the kind of experiment: Reversal of hyperglycemia in newly diabetic NOD mice. As to conditions: FIG. 11, individual mice. Type of experiment: in vivo. As to the method: FIGS. 9A-9C illustrate the ability of coadministered GAD and GABA to reverse hyperglycemia in newly diabetic NOD mice. Mice were considered diabetic after two blood glucose>250 mgs/dL. […] Data shown are blood glucose levels in individual mice given no treatment (FIG. 9A), GABA alone (6 mgs/ml in drinking water) (FIG. 9B), or GABA+GAD/alum (100 μg sc on day 1 and 14) (FIG. 9C). The mice are staggered because they became spontaneously diabetic at different times, we alternated which treatment group they were placed into, and we are still entering mice into the study and monitoring them.
Based on the ability of GAD+GABA therapy to prolong islet graft survival, we tested whether this treatment could reverse hyperglycemia in newly diabetic NOD mice. We are still adding mice into these studies, but the patterns are clear. […] Acad. Sci., U.S.A., 89: 3434-3438), ALG+GCSF reversed T1D in 75% of mice over a 180 day observation period (Parker et al. (2009) Diabetes, 58: 2277-2284) and TL-2 reversed T1D in 60% of mice over a 56 day observation period (Grinberg-Bleyer et al. (2010) J. Exp. Med., 207: 1871-1878). Thus GAD+GABA has a synergistic and robust therapeutic effect.
We now have data showing that administration of IL-2 with GABA can enhance its therapeutic effect, and more efficiently reverse hyperglycemia. […]

Experiment [2] has as its system newly diabetic NOD mice. As to conditions: 56 day observation period, Grinberg-Bleyer et al. (2010); cited from earlier work.

Take “IL-2: interleukin-2, factor that stimulates a regulatory and/or immune response”: the “newly diabetic NOD mice that became normoglycemic (blood glucose below 250 mgs/dl)” value in experiment [1] is recorded as “one of three”. Further, the “mice in which T1D was reversed” value in experiment [2] is given as 60%.

Values taken from US11872200B2, “GABA agonists in the treatment of disorders associated with metabolic syndrome and GABA combinations in treatment or prophylaxis of type I diabetes” (The Regents of the University of California, priority 2010, dated 2024).
